Reference: US20230263822A1, “MODULATION OF FACTOR 11 EXPRESSION” (Ionis Pharmaceuticals, Inc., priority 2008, published 2023)

Columns and labels:
Factor 11 mRNA = Factor 11 mRNA in liver, FeCl3 induced venous thrombosis model vs warfarin (Example 11); assay type: in vivo, BALB/c mice; settings: FeCl3 VT model
Method: Two control groups of BALB/c mice were treated with PBS, administered subcutaneously twice a week for 3 weeks. Two days after the last dose of PBS, mice in both groups were anesthetized with 150 mg/kg ketamine mixed with 10 mg/kg xylazine administered by intraperitoneal injection. Thrombus formation was induced with FeCl3 in all groups of mice except the first control group.
In mice undergoing FeCl3 treatment, thrombus formation was induced by applying a piece of filter paper (2×4 mm) pre-saturated with 10% FeCl3 solution directly on the vena cava. After 3 minutes of exposure, the filter paper was removed. Thirty minutes after the filter paper application, a fixed length of the vein containing the thrombus was dissected out for platelet analysis. Liver was collected for RNA analysis.
RNA was extracted from liver tissue for real-time PCR analysis of Factor 11.

blood coagulation = test: PT and aPTT vs warfarin (Example 13); assay type: in vivo, BALB/c mice; settings: Warfarin 0.5 mg/kg intraperitoneally daily for 6 days; PPP two days after final dose
Method: In a control group, BALB/c mice were treated with PBS, administered subcutaneously mice twice a week for 3 weeks.
Two days after the final dose was administered, PPP was collected and PT and aPTT assays were performed.
PT and aPTT values provided in Table 16 are reported as International Normalized Ratio (INR) values. […] This ratio was then raised to the power of the International Sensitivity Index (ISI) of the tissue factor used.

SMILES: CC(=O)CC(c1ccccc1)c1c(O)c2ccccc2oc1=O (stereo not shown) [warfarin]
- % inhibition of Factor 11 mRNA in liver relative to PBS control (Factor 11 mRNA; Warfarin 0.5 mg/kg intraperitoneally daily for 6 days): 0%
- % inhibition of Factor 11 mRNA in liver relative to PBS control (Factor 11 mRNA; Warfarin 1 mg/kg intraperitoneally daily for 6 days): 0%
- % inhibition of Factor 11 mRNA in liver relative to PBS control (Factor 11 mRNA; Warfarin 2 mg/kg intraperitoneally daily for 6 days): 1%
- % inhibition of Factor 11 mRNA in liver relative to PBS control (Factor 11 mRNA; Warfarin 3 mg/kg intraperitoneally daily for 6 days): 5%
- % inhibition of Factor 11 mRNA in liver relative to PBS control (Factor 11 mRNA; Warfarin 4 mg/kg intraperitoneally daily for 6 days): 8%
- % inhibition of Factor 11 mRNA in liver relative to PBS control (Factor 11 mRNA; Warfarin 5 mg/kg intraperitoneally daily for 6 days): 11%
- PT INR (blood coagulation): 1.41 INR
